## OPERA 2.9 data: intrinsic clearance values

Data: OPERA 2.9 data sets, kmansouri/OPERA on GitHub.

Intrinsic clearance (human, µL/min per 10^6 hepatocytes): higher is faster turnover, and 0 stands for none detected.

COc1cccc2c1c(NS(=O)(=O)c1ccc(Cl)s1)nn2Cc1cccc(CNC(=O)[C@H]2COCCN2)c1 has Clint 17.89 µL/min/10^6 cells. Listed for C=C1C[C@H]2[C@@H]3C=C(C)C4=CC(=O)CC[C@]4(C)[C@H]3CC[C@]2(C)[C@@]1(OC(C)=O)C(C)=O [Melengestrol acetate]: Clint 41.4 µL/min/10^6 cells. O.O=C1[N-]S(=O)(=O)c2ccccc21.[Na+] [Sodium saccharin hydrate] has Clint 0 µL/min/10^6 cells. CC(C)c1ccc(C(=O)N=C(N)N)cc1S(C)(=O)=O.CS(=O)(=O)O [Cariporide mesylate] is reported with Clint 0 µL/min/10^6 cells. Listed for Oc1ccccc1O [Catechol]: Clint 42.3 µL/min/10^6 cells.

Cc1cccc(Nc2cc(Cl)nc(SCC(=O)O)n2)c1C [Pirinixic acid] has Clint 7.51 µL/min/10^6 cells. The entry for Nc1nc(N)c2nc(-c3ccccc3)c(N)nc2n1 [Triamterene] lists Clint 0 µL/min/10^6 cells. CCCCOC(=O)CCCCC(=O)OCCCC [Dibutyl hexanedioate] is reported with Clint 14.03 µL/min/10^6 cells. O=C(O)c1ccccc1C(=O)OCc1ccccc1 [Benzyl hydrogen phthalate] has Clint 0 µL/min/10^6 cells. For Cc1ccc(O)cc1 [4-methylphenol] the data give Clint 39.66 µL/min/10^6 cells.

Listed for CC(C)(C)c1ccc(O)c(C(C)(C)C)c1 [2,4-di-tert-butylphenol]: Clint 2.52 µL/min/10^6 cells. The entry for N[C@@H](Cc1cc(I)c(Oc2cc(I)c(O)c(I)c2)c(I)c1)C(=O)O [Levothyroxine] lists Clint 0 µL/min/10^6 cells. CCCC(CC)C(=O)O (centres undefined) [2-ethyl-pentanoic acid] has Clint 0.779 µL/min/10^6 cells. The entry for COc1cc(O)c(C(=O)c2ccccc2)cc1S(=O)(=O)O [Sulisobenzone] lists Clint 1.05 µL/min/10^6 cells. For CN(C)c1ccc(C(=C2C=CC(=[N+](C)C)C=C2)c2ccc(N(C)C)cc2)cc1.[Cl-] [Hexamethyl-p-rosaniline chloride] the data give Clint 8.322 µL/min/10^6 cells.

For Cn1cnc([N+](=O)[O-])c1Sc1ncnc2nc[nH]c12 [Azathioprine] the data give Clint 0 µL/min/10^6 cells. Listed for COC(=O)c1c(C)cc(O)c(C)c1O [Methyl 2,4-dihydroxy-3,6-dimethylbenzoate]: Clint 268 µL/min/10^6 cells. For O=S(=O)([O-])c1ccc(N=Nc2c(O)ccc3cc(S(=O)(=O)[O-])ccc23)cc1.[Na+].[Na+] [Fd&c yellow 6] the data give Clint 18.9 µL/min/10^6 cells. COc1ccc(CCN2C(=O)N(NS(C)(=O)=O)C[C@H]2c2ccc(OC)cc2)cc1 is reported with Clint 20.42 µL/min/10^6 cells. The entry for CCCCC(C)C(=O)O (centres undefined) [ 2-Methylhexanoic acid ] lists Clint 3.95 µL/min/10^6 cells.

For CC(C)(C)c1cccc(C(C)(C)C)c1O [2,6-di-tert-butylphenol] the data give Clint 0 µL/min/10^6 cells. O=C(Nc1ccc([N+](=O)[O-])cc1Cl)c1cc(Cl)ccc1O [Niclosamide] has Clint 12 µL/min/10^6 cells. The entry for CC(=O)c1ccc2c(c1)[C@H](NC(=O)c1ccc(F)cc1)[C@@H](O)C(C)(C)O2 [Carabersat] lists Clint 0 µL/min/10^6 cells. For CCCCOC(=O)CCCCCCCCC(=O)OCCCC [Dibutyl decanedioate] the data give Clint 134 µL/min/10^6 cells. CCCCCCOc1ccc(O)cc1 [4-(hexyloxy)phenol] is reported with Clint 83.6 µL/min/10^6 cells.

c1ccc2ccccc2c1 [Naphthalene] is reported with Clint 10.39 µL/min/10^6 cells. For COCCOC[C@H](CC1(C(=O)N[C@H]2CC[C@@H](C(=O)O)CC2)CCCC1)C(=O)Oc1ccc2c(c1)CCC2 [Candoxatril] the data give Clint 9.898 µL/min/10^6 cells. For O=C(O[C@@H]1Cc2c(O)cc(O)cc2O[C@@H]1c1cc(O)c(O)c(O)c1)c1cc(O)c(O)c(O)c1 [(-)-epigallocatechin gallate] the data give Clint 135 µL/min/10^6 cells. Listed for CCCCCCCCCCCC[N+](C)(C)C.[Cl-] [Dodecyltrimethylammonium chloride]: Clint 16.2 µL/min/10^6 cells. Oc1ccc(Cc2ccccc2O)cc1 [2-(4-hydroxybenzyl)phenol] has Clint 56.8 µL/min/10^6 cells.

For CC1=CC(=O)CC(C)(C)C1 [Isophorone] the data give Clint 18.7 µL/min/10^6 cells. The entry for CC(=O)OC/C=C(\C)CCC=C(C)C [Geranyl acetate] lists Clint 823 µL/min/10^6 cells. The entry for CCN(CC)C(=O)c1cccc(C)c1 [Diethyltoluamide] lists Clint 3.8 µL/min/10^6 cells. C[C@]12C=CC(=O)C=C1CC[C@H]1[C@@H]3C[C@@H](O)[C@](O)(C(=O)CO)[C@@]3(C)C[C@H](O)[C@@]12F [Triamcinolone] is reported with Clint 2.492 µL/min/10^6 cells. Listed for COc1ccc(OC(F)(F)F)cc1CN[C@H]1CCCN[C@H]1c1ccccc1: Clint 6.188 µL/min/10^6 cells.

Cc1ccc(C)c(O)c1C [2,3,6-trimethylphenol] is reported with Clint 106 µL/min/10^6 cells.

Extract of 2 entries:

CCCC(CC)C(=O)O (centres undefined) [2-ethyl-pentanoic acid] is reported with Clint 0.779 µL/min/10^6 cells.
CC1=CC(=O)CC(C)(C)C1 [Isophorone] is reported with Clint 18.7 µL/min/10^6 cells.

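OPERA's authors assembled the values from existing databases and did not measure them anew. A listed value is a point estimate from one report or more. How each value was measured is not recorded, so precision varies. The measured form (salt, isomer or mixture) is not always the one drawn. Unmarked limits or estimates from the upstream databases cannot be ruled out.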